# This is a sample that favours compounds with a hit; in the whole collection about 2.4% have one here.
# PGK inhibitor: blocks T. brucei phosphoglycerate kinase | P07378 | PGK/GAPDH coupled, Kinase-Glo luminescence, 60 min | Potency, µM (titrated, usually from 57.5 µM), inactives show top-dose activity change, negative = inhibition, hits mostly inhibitors | 0.043% of 380,000 active; note: % is set by controls: 0 for no effect and ±100 for the full control effect; nearly all actives have a fitted effect of over 60% in size
#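 Luminescent ATP detection (Kinase-Glo Plus) follows a 60-minute room-temperature incubation, with wells lacking PGK as controls. Buffer: 100 mM TEA (pH 7.6), 5 mM MgCl2, 0.01% Tween-20. Coupling enzyme GAPDH (100 nM final) supplies unstable 1,3-BPG in-well.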
# Rango release inh: inhibitors of RanGTP-induced Rango-importin beta complex dissociation. O95149+P62826. Biochemical FRET Rango-importin beta, RanGTP-induced dissociation. Potency, µM (series often up to 46.1 µM), for inactives: top-dose activity change, negative = inhibition. 0.071% of 340,000 active. AID 540253; calls by dose curve; note: % of control where 0% means no effect; nearly all actives have a fitted effect of over 45% in size
#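 Rango FRET biosensor (snurportin-1 IBB flanked by N-terminal EYFP and C-terminal CFP10) at 0.1 uM, with 0.25 uM importin beta in PBS, 1mM DTT, 0.02% Tween-20, 0.1% BSA. 0.6 uM Ran, 2mM GTP and 0.2 uM RCC1 were then added for 45 min at room temperature. Inhibition read as loss of FRET rise.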
# Rango-impB inh: Rango-importin beta binding inhibition | Q14974 | Rango CFP/YFP FRET sensor + importin beta, 45 min | Potency, µM (titrated, usually from 92.2 µM), for inactives: at the top dose inhibition of complex formation | 0.031% of 340,000 active | AID 540263; calls by dose curve;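 note: 0% = DMSO wells and 100% = buffer wells lacking importin beta; nearly all actives have a fitted effect of over 15% in size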
#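 Inhibition scored from the CFP 486 nm/YFP 530 nm FRET ratio 45 min after adding 0.125 microM importin beta to 50 nM Rango biosensor preincubated 5 min with compound (room temperature, PBS with DTT, Tween-20, BSA). No-importin wells as positive control.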
# ELG1 DNA repair: ELG1-dependent DNA repair inhibition; Potency, µM (titrated, usually from 46.1 µM), inactives show at the top dose activity change, negative = inhibition, usual class: inhibitors; HEK293T ELG1-luciferase reporter, luminescence, 16 h; DNA damage induced by 5-fluorouridine; 2.3% of 330,000 active; note: % is set by controls: 0 for no effect and ±100 for the full control effect; nearly all actives have a fitted effect of over 55% in size
#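 5-Fluorouridine DNA damage + compound/DMSO, 2,000 cells/well, 16 h, 37 °C/5% CO2. ONE-Glo, 30 min RT, luminescence. Readout = decrease in reporter signal.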
# Tb PFK inh: T. brucei PFK enzyme inhibition; O15648; AID 485367; 0.17% of 330,000 active; T. brucei PFK, ADP-Glo luminescence; Potency, µM (titrated, usually from 57.5 µM), without a hit: top-dose activity, negative = inhibition, most hits filed as inhibitors;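 note: 0% = uninhibited 1x PFK enzyme wells and -100% = no-enzyme wells; nearly all actives have a fitted effect of over 60% in size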
#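 In TEA buffer at pH 8.0 with 5 mM MgCl2, enzyme (1.25 nM) converted F6P (0.5 mM) and ATP (0.1 mM) for 45 min at room temperature. ADP product was read by luciferase luminescence.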
# PKM2 activator: PKM2 (human) enzyme activation. P14618. purified PKM2, Kinase-Glo ATP luminescence, activation; response scale: 0% is enzyme alone, no compound. Potency, µM (titrated, usually from 57.5 µM), inactives show at the highest dose activation, hits mostly activators. 0.34% of 260,000 active; note: % is set by controls: 0 for no effect and ±100 for the full control effect; nearly all actives have a fitted effect of over 55% in size
#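 ATP formation by purified human PK-M2, quantified via coupled luciferase luminescence after 1 h at room temperature with 0.1 mM ADP and 0.5 mM PEP final.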
# * marks the source's active call; other numbers are inactive results; i = inactive; ? = inconclusive; . = no result; [ ] = dose if it differs, or a comment. Unless noted, calls come from the whole dose curve; as a rule, active = well fitted curve in the direction sought with a large enough effect; inconclusive = small, poorly fitted or top-dose-only effect, or another doubt; inactive = no such curve, though single readings can be large; an effect the other way counts as inactive or inconclusive. Potency is the fitted concentration of half-maximal effect.
SMILES,PGK inhibitor,Rango release inh,Rango-impB inh,ELG1 DNA repair,Tb PFK inh,PKM2 activator
CCCCCCOC(=O)C(C#N)c1nc2ccccc2nc1N1CCOCC1 (stereo not drawn),-1%,?,?,?,4%,-17%
CCCCCCOC(=O)C(C#N)c1nc2ccccc2nc1N1CCN(CC)CC1 (stereo not drawn),9%,?,?,-26%,7%,4%
COCCCNC(=O)C(C#N)c1nc2ccccc2nc1N1CCCC1 (stereo not drawn),-9%,?,?,21µM*,-2%,0%
CCCCOC(=O)C(C#N)c1nc2ccccc2nc1N1CCOCC1 (stereo not drawn),-10%,?,?,21µM*,2%,-8%
CC(=O)OCc1cnc(C)c2oc(=O)c(C(=O)Nc3ccc(F)cc3C)cc12,-1%,.,.,.,.,.
CCOc1ccc(C(=O)NCC(=O)NCC2CCCCC2)cc1OCC,0%,5%,0%,-10%,-6%,.
CC(=O)NC(CC(=O)OCC(=O)N1CCN(S(=O)(=O)c2ccc(Cl)cc2)CC1)c1ccccc1 (stereo not drawn),-2%,27%,-1%,-16%,-4%,.
COc1c(OC(C)=O)c(=O)n2c3ccccc3c3ccnc1c32,-4%,0%,21µM*,17%,15%,.
CCc1ccccc1NC(=O)c1cc2c(Cl)nc3ccccc3c2s1,i,.,.,.,.,.
COc1ccc(N2CCN(C(=O)c3c(C)oc4ncn(CC(C)C)c(=O)c34)CC2)cc1,7%,.,.,.,.,.
COC(=O)CCC(=O)c1oc2ccc(Cl)cc2c1NC(=O)CCCN1C(=O)c2ccccc2C1=O,0%,16%,-4%,4.6µM*,0%,-8%
C[C@@H]1CCC[C@]2(O[C@@H](CCO)C[C@@H](O)[C@@H]2O)O1,0%,-3%,1%,.,.,.
CCCN(CC(=O)Nc1ccccc1OC)C(=O)C1=COCCO1,-7%,-2%,0%,30%,-1%,.
COc1ccc(/C=C(/C(=O)Nc2ccccc2C(=O)N2CCCC2)c2ccccc2)cc1,-5%,-14%,-2%,23µM*,-2%,4%
COc1ccc(/C=C(/C(=O)Nc2ccccc2C(=O)NC(C)C)c2ccccc2)cc1,6%,-5%,6%,?,-1%,-1%
Cc1ccc(S(=O)(=O)Nc2c(Cl)c(Cl)c(O)c3ccccc23)cc1,.,.,.,-11%,15µM*,-1%
Cc1cccc(NC(=O)c2cc(-c3ccc(C)s3)nc3ccccc23)n1,-3%,-4%,?,6.5µM*,-2%,-5%
Cc1cc(C)nc(NC(=O)c2cc(-c3ccc4c(c3)OCO4)nc3ccccc23)c1,-5%,-4%,4%,18µM*,3%,-1%
COC(=O)c1cc(-c2ccc3c(c2)OCO3)nc2ccccc12,-8%,2%,?,-19%,-6%,2%
COc1cc2ccccc2cc1C(=O)NCC(c1cccs1)N(C)C (stereo not drawn),-5%,2%,-3%,?,-2%,1%
[O-][n+]1c2c(c3c4non(O)c4ccc31)CCCC2,-10%,2%,-1%,23µM*,-2%,-5%
CC(=O)C[C@@H](O)CC(=O)[C@@H]1OC(=O)CCCCCc2ccccc21,2%,0%,-4%,1%,6%,.
O=C1CSC(c2cn(-c3ccccc3)nc2-c2cc3ccccc3oc2=O)N1Cc1ccco1 (stereo not drawn),i,-2%,-1%,16µM*,0%,5%
O=C1C=CC(=O)N1c1cccc(-c2ccccc2)c1,-1%,-8%,6%,10%,?,3.2µM*
COC(=O)c1ccc(NC(=O)c2cc3cc(C)ccc3n2C)cc1,i,.,.,.,.,.

# Following part.
SMILES,PGK inhibitor,Rango release inh,Rango-impB inh,ELG1 DNA repair,Tb PFK inh,PKM2 activator
COc1ccc(N2CCN(C(=O)c3ccc(CS(=O)(=O)c4ccc(OC)cc4)o3)CC2)cc1,-5%,23%,1%,?,-1%,-1%
COc1ccc(S(=O)(=O)Cc2ccc(C(=O)N3CCN(c4cccc(C)c4C)CC3)o2)cc1,i,?,5%,16µM*,-8%,-3%
CCOC(=O)N1CCN(C(=O)c2ccc(CS(=O)(=O)c3ccccc3OC)o2)CC1,i,13%,-6%,?,-2%,28%
COc1ccccc1S(=O)(=O)Cc1ccc(C(=O)N2CCN(c3ccc(C)cc3)C(C)C2)o1 (stereo not drawn),-2%,21%,4%,21µM*,1%,14%
COc1ccc(S(=O)(=O)Cc2ccc(C(=O)N3CCN(c4cccc(C)c4)C(C)C3)o2)cc1 (stereo not drawn),i,0%,-1%,13µM*,3%,6%
Cc1cc(C)n(C(C)CNS(=O)(=O)c2ccc(Cl)cc2)n1 (stereo not drawn),i,-1%,-2%,2%,-1%,1%
Cc1noc(C)c1C(=O)OC(C)C(=O)N(C)c1ccccc1 (stereo not drawn),1%,1%,-2%,7%,-3%,.
CCOc1ncccc1C(=O)Nc1ccc(C)c(S(=O)(=O)N2CCCCCC2)c1,i,-9%,7%,21µM*,-1%,.
Cc1ccc(NC(=S)Nc2ccc(C(C)C)cc2)cc1S(=O)(=O)N1CCCCCC1,-2%,-11%,3%,12µM*,-4%,-20%
CCOc1ncccc1C(=O)Nc1ccc(OC)c(S(=O)(=O)N2CCCCC2)c1,-8%,-20%,?,?,-2%,-3%
Cc1ccc(NC(=O)c2ccc(=O)[nH]c2)cc1S(=O)(=O)N1CCCCCC1,i,0%,-1%,16µM*,0%,.
CC(=O)c1cccc(OCCCOc2cccc3cccnc23)c1,7%,7%,0%,7%,2%,0%[11.5 µM]
Cc1ccnc(NS(=O)(=O)c2ccc(-n3cccn3)cc2)c1,-8%,-1%,-2%,12%,0%,.
COc1ccc(Cc2nnc(SCc3ccc([N+](=O)[O-])cc3)o2)cc1,-3%,7%,4%,23µM*,-17%,12%
O=[N+]([O-])c1ccc(CSc2nnc(Cc3ccccc3)o2)cc1,i,-14%,-2%,-14%,-5%,1%
CC1(C)CC(=O)C2=C(C1)N=C1c3ccccc3C(=O)C1C2c1ccc(Cl)cc1 (stereo not drawn),-8%,0%,3%,?,-1%,16%
CCOC(=O)C1=C(C)N=C2c3ccccc3C(=O)C2C1c1ccc(Cl)cc1 (stereo not drawn),-1%,-18%,0%,21µM*,2%,3%

# An excerpt from above in order of the PGK inhibitor value, highest first.
SMILES	PGK inhibitor	Rango release inh	Rango-impB inh	Tb PFK inh	PKM2 activator
CC(=O)c1cccc(OCCCOc2cccc3cccnc23)c1	7%	7%	0%	2%	0%[11.5 µM]
CCOC(=O)C1=C(C)N=C2c3ccccc3C(=O)C2C1c1ccc(Cl)cc1 (stereo not drawn)	-1%	-18%	0%	2%	3%
Cc1ccc(NC(=S)Nc2ccc(C(C)C)cc2)cc1S(=O)(=O)N1CCCCCC1	-2%	-11%	3%	-4%	-20%

# Record cards (already shown):
# Listed for `O=C1C=CC(=O)N1c1cccc(-c2ccccc2)c1` = PGK inhibitor: -1%; Rango release inh: -8%; Rango-impB inh: 6%; ELG1 DNA repair: 10%; Tb PFK inh: ?; PKM2 activator: 3.2µM*
# Listed for `CC1(C)CC(=O)C2=C(C1)N=C1c3ccccc3C(=O)C1C2c1ccc(Cl)cc1` (stereo not drawn) = PGK inhibitor: -8%; Rango release inh: 0%; Rango-impB inh: 3%; ELG1 DNA repair: ?; Tb PFK inh: -1%; PKM2 activator: 16%

# Assay outcomes (PubChem)
